# Assay results taken from US20060135612A1, “Method of ameliorating or abrogating the effects of a neurodegenerative disorder, such as amyotrophic lateral sclerosis (ALS), by using a HDAC inhibiting agent” (U.S. Department of Veterans Affairs, priority 2004, published 2006).
# Key:
# bcl-2 mRNA = details: G93A mice, 400 mg/kg/d for 2 weeks, vs PBS
substance,measurement,setting,value
sodium phenylbutyrate [PBA],increase of bcl-2/GAPDH ratio (densitometric analysis),bcl-2 mRNA,31.4%
same,Survival (Days ± SD),"G93A transgenic ALS mice; G93A mice, 100 mg/kg/d i.p.",126.0 ± 4.0 days
same,effect on survival relative to riluzole,G93A transgenic ALS mice; transgenic SOD1 mice,more than two-fold greater
